Results as given in patent EP4847525A1, “PREPARATION METHOD FOR AND USE OF LACTOFERRIN AND FORMULATION THEREOF” (dated 2026).

Key:
[1] = test system: methacryloylated apo-lactoferrin (Apo-LfMA), methacrylic anhydride grafting degree 30%, apo-lactoferrin de-ironed at pH=4.0 (Embodiment 6); assay: SPR (Biacore) binding constant KD of heme binding to lactoferrin; settings: read-out: KD value of the lactoferrin binding to heme, Embodiment 6, grafting degree 30%, de-ironing at pH 4.0
Source text: (§1) Value of a binding constant KD: The technique used is a surface plasmon resonance (SPR) technique with a Biacore instrument. The SPR principle is used to detect an interaction between a ligand on a biosensor chip and an analyte. To study an interaction between two molecules, one molecule is immobilized onto a chip surface, while the other molecule flows continuously over the chip surface in the form of a solution. […] Calculation formula: KD=kd/ka, where ka is an affinity rate at which heme is bound to the protein, and kd is a dissociation rate.
(§2) A use of a lactoferrin in binding to heme is provided, and specific steps are as follows. • (1) Acetic acid, sodium acetate (at a molar ratio of 1:1), and EDTA are added to a PBS solution with a pH of 4.0 to prepare a mixed solution, and lactoferrin powder to be de-ironed (Bega, Australia) is then dissolved in the mixed solution at room temperature to prepare a lactoferrin solution to be de-ironed with a concentration of 10 g/100 mL. In the mixed solution, the concentration of PBS is 0.01 M, the total concentration of acetic acid and sodium acetate is 0.1 M, and the concentration of EDTA is 500 mM.
A usage ratio of methacrylic anhydride to the apo-lactoferrin is 0.03 mL/1 g. A grafting degree of methacrylic anhydride on the methacryloylated apo-lactoferrin is 30%.
The methacryloylated lactoferrin has 11 heme-binding sites. […]

[2] = test system: methacryloylated apo-lactoferrin (100% Apo-LfMA), methacrylic anhydride grafting degree 100%, apo-lactoferrin de-ironed at pH=2.0 (Embodiment 7); assay: as above; settings: read-out: KD value of the lactoferrin binding to heme, Embodiment 7, grafting degree 100%, de-ironing at pH 2.0
Source text: as §1
as §2, with “2.0” for “4.0”, “mL.” for “mL. In the mixed solution, the concentration of PBS is 0.01 M, the total concentration of acetic acid and sodium acetate is 0.1 M, and the concentration of EDTA is 500 mM.”
A molecular weight cutoff of the dialysis bag is 7,000 Da.
A usage ratio of methacrylic anhydride to the apo-lactoferrin is 2 mL/1 g. A grafting degree of methacrylic anhydride on the methacryloylated apo-lactoferrin is 100%.
The methacryloylated lactoferrin has 10 heme-binding sites. A KD value of the lactoferrin binding to heme is 2.02 nM.

## heme
[1]
  Kd: 0.38 nM
[2]
  Kd: 2.02 nM
